Results on one molecule are retold here after BindingDB's records for 15357993.

Each structure is given as a SMILES string.

The assay has as its target Carbonic anhydrase (Methanothermobacter thermautotrophicus (strain ATCC 29096 / DSM 1053 / JCM 10044 / NBRC 100330 / Delta H), UniProt Q50565).

As for `[N-]=[N+]=N`, the Ki (in general, the dissociation constant of the complex between target and ligand, obtained from inhibition or displacement) worked out at 55.7 mM.
